Data on seven molecules can be found in publication PMC2225448 (Structure(London, England:1993), 2007).

Protein sequences, listed by entry. Tags and fused reporters are not part of them. Residues count along the entry.
UniProt Q8WXH5, 274-437: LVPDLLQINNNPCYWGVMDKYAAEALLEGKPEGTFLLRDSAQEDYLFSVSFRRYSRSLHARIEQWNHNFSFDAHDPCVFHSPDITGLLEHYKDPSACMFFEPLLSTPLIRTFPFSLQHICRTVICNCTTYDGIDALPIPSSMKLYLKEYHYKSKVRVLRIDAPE
UniProt O14508, 32-198 limits assumed: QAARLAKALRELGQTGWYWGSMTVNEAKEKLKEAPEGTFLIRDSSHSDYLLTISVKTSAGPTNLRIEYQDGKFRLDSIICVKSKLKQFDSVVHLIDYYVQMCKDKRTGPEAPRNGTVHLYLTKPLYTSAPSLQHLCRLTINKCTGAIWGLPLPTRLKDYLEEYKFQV

For one assay, the target named is T1, SOCS4/ElonginBC (Homo sapiens, UniProt Q15369+Q15370+Q8WXH5).
T1 construct: Human SOCS4 (amino acids 274–437); made in house; host or cells: E. coli BL21(DE3)
Nature of the assay: ITC binding of phosphotyrosine peptides to SOCS4/ElonginBC. Conditions: 50 mM HEPES pH 7.5, 150 mM NaCl, 1 mM DTT, 20°C; for Kd: 0.3–0.4 mM peptide injected into 15 μM protein, single binding site model; for KB × 10^5: association constant, ± curve fitting error.

Assay [1] deals with T2, SOCS2/ElonginBC (Homo sapiens, UniProt O14508+Q15369+Q15370). Kind of assay: ITC binding of phosphotyrosine peptides to SOCS2/ElonginBC. To be noted: 50 mM HEPES pH 7.5, 150 mM NaCl, 1 mM DTT, 20°C; for KB × 10^5: association constant, ± curve fitting error; for Kd: 0.3–0.4 mM peptide injected into 15 μM protein, single binding site model.
Assay [2] has as its target T2, SOCS2/ElonginBC. To be noted: ITC, association constant; ref Bullock et al., 2006; cited from earlier work.

Molecules are shown by their SMILES. Like-named read-outs stand apart in the source and are kept apart here.

What is called Kd is the free concentration of one partner at which half of the binding sites on the other are occupied at equilibrium, for simple one-to-one binding. Low values mean higher affinity, high ones lower affinity. As for `CC(C)[C@H](NC(=O)[C@@H](NC(=O)[C@@H](NC(=O)[C@H](CO)NC(=O)[C@H](Cc1ccc(OP(=O)(O)O)cc1)NC(=O)[C@H](CCC(N)=O)NC(=O)[C@@H](NC(=O)[C@@H](NC(=O)[C@@H](N)CO)[C@@H](C)O)C(C)C)[C@@H](C)O)C(C)C)C(=O)N[C@@H](Cc1c[nH]cn1)C(=O)N[C@@H](CO)C(=O)O` [gp130 pY759], on SOCS4/ElonginBC, the affinity, expressed as Kd, was 7.1 µM and the “KB × 10^5” value is 1.41 ± 0.17 10^5 M^−1.
With `CC[C@H](C)[C@H](NC(=O)[C@H](Cc1ccc(O)cc1)NC(=O)[C@@H](NC(=O)[C@H](Cc1ccc(OP(=O)(O)O)cc1)NC(=O)[C@H](CC(N)=O)NC(=O)[C@H](CC(N)=O)NC(=O)CNC(=O)[C@@H](N)CC(N)=O)C(C)C)C(=O)N[C@@H](CC(=O)O)C(=O)N1CCC[C@H]1C(=O)N[C@H](C(=O)O)[C@@H](C)O` [KIT pY568], at SOCS2/ElonginBC [1], the “KB × 10^5” value is 1.20 ± 0.23 10^5 M^−1.
`CC(C)[C@H](NC(=O)[C@H](CCCCN)NC(=O)[C@H](Cc1ccc(O)cc1)NC(=O)[C@H](Cc1ccc(OP(=O)(O)O)cc1)NC(=O)[C@H](CCC(=O)O)NC(=O)[C@H](CCCCN)NC(=O)[C@H](CC(=O)O)NC(=O)[C@@H](N)CCC(N)=O)C(=O)N[C@@H](CCCCN)C(=O)N[C@@H](CCC(=O)O)C(=O)N1CCC[C@H]1C(=O)NCC(=O)O` [JAK2 pY1007]: at SOCS2/ElonginBC [1], the Kd amounted to 8.1 µM and the “KB × 10^5” value is recorded as 1.23 ± 0.34 10^5 M^−1. For the same molecule, the Kd at SOCS4/ElonginBC was determined as 2.9 µM.
For `CC(C)C[C@H](NC(=O)[C@H](Cc1ccc(OP(=O)(O)O)cc1)NC(=O)[C@H](CS)NC(=O)[C@@H](NC(=O)[C@H](CO)NC(=O)[C@@H](N)CCCCN)C(C)C)C(=O)NCC(=O)N[C@H](C(=O)N[C@H](C(=O)N[C@@H](CO)C(=O)N[C@H](C(=O)N[C@@H](CC(N)=O)C(=O)O)C(C)C)[C@@H](C)O)C(C)C` [LeptinR pY1077], on SOCS4/ElonginBC, binding was put at a Kd of 5.5 µM and the “KB × 10^5” value was 1.82 ± 0.13 10^5 M^−1.
Regarding `CC[C@H](C)[C@H](NC(=O)[C@H](CO)NC(=O)[C@@H](NC(=O)[C@H](Cc1ccc(OP(=O)(O)O)cc1)NC(=O)[C@H](CC(=O)O)NC(=O)[C@@H]1CCCN1C(=O)[C@@H](NC(=O)[C@@H]1CCCN1)C(C)C)[C@@H](C)O)C(=O)N[C@@H](Cc1c[nH]cn1)C(=O)N[C@H](C(=O)N[C@H](C(=O)O)C(C)C)[C@@H](C)CC` [GHR pY595], the “KB × 10^5” value on SOCS2/ElonginBC [2] is 6.08 ± 1.03 10^5 M^−1.
Consider `CC[C@H](C)[C@H](NC(=O)[C@H](CC(=O)O)NC(=O)[C@H](CO)NC(=O)[C@@H](NC(=O)[C@H](CCC(N)=O)NC(=O)[C@H](C)NC(=O)[C@H](Cc1ccc(OP(=O)(O)O)cc1)NC(=O)[C@H](Cc1ccccc1)NC(=O)[C@H](CC(=O)O)NC(=O)[C@@H](NC(=O)[C@@H](N)CC(N)=O)[C@@H](C)CC)C(C)C)C(=O)N[C@H](C(=O)O)[C@@H](C)O` [GHR pY487], for which, at SOCS2/ElonginBC [1], the Kd was 11.3 µM and the “KB × 10^5” value is recorded as 0.89 ± 0.64 10^5 M^−1. On SOCS4/ElonginBC, binding was characterised by a dissociation constant (Kd) of 5.1 µM and the “KB × 10^5” value is 1.96 ± 0.11 10^5 M^−1.
Turning to `CC[C@H](C)[C@H](NC(=O)[C@@H](NC(=O)[C@H](Cc1ccc(OP(=O)(O)O)cc1)NC(=O)[C@H](CCC(=O)O)NC(=O)[C@H](Cc1ccccc1)NC(=O)[C@H](CO)NC(=O)[C@H](C)N)[C@@H](C)O)C(=O)N[C@@H](CC(C)C)C(=O)N[C@@H](CC(=O)O)C(=O)N1CCC[C@H]1C(=O)N[C@@H](CO)C(=O)O` [EpoR pY402], the “KB × 10^5” value at SOCS2/ElonginBC [2] is recorded as 1.42 ± 0.27 10^5 M^−1.
